EC50 data for 30 compounds are collected here from patent US20240309003A1, “HETEROCYCLIC COMPOUNDS AS TRIGGERING RECEPTOR EXPRESSED ON MYELOID CELLS 2 AGONISTS AND METHODS OF USE” (Vigil Neuroscience, Inc., priority 2021, published 2024).

By UniProt entry, the sequences of proteins in these tests, tags left out. Residues count along the entry.
UniProt Q9NZC2, 19-230 limits assumed: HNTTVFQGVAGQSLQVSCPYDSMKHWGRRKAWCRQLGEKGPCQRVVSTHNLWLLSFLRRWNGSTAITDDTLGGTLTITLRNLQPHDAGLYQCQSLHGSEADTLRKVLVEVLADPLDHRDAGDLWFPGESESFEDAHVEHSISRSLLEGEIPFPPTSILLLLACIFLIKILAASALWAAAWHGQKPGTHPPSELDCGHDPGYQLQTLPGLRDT
UniProt O43914, 22-113 partner limits assumed: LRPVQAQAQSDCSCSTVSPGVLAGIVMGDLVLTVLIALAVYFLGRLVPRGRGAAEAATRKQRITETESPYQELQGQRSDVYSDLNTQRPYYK

pEC50: −log10 of the molar value. Read-outs that look alike come from different tables or passages of the source. Bounds are passed on as bounds.

The target in the assay is human TREM2 (Homo sapiens, UniProt Q9NZC2). The assay can be described thus: TREM2 agonist potency by cellular phosphorylation of Syk (AlphaLisa) in HEK293T-hTREM2 cells. In general terms: Alpha assays give light when donor and acceptor beads are brought close together.
Where [1] appears, read: read-out: hTREM2 EC50, HEK293 cells expressing human TREM2 and DAP12, Table D-2.
Where [2] appears, read: read-out: hTREM2 EC50, HEK293 cells expressing human TREM2 and DAP12, Table D.

For orientation: pEC50 means the EC50 on a negative log10 scale, so that one unit is a factor of ten. In the case of `Cc1nc2cc([C@H]3CCO[C@@H](c4cnn(C5CC5)c4)C3)nc(-c3ccc(F)cc3F)c2nc1COC1COC1`, the pEC50 under setting [1] is 5.52 to 6.30.
Take `CC(=O)N(C)CCn1cc(C2CC(c3nc(-c4ccc(F)cc4F)c4nc(C)c(C)nc4n3)CCO2)cn1` (stereo not drawn): the negative-log EC50 (pEC50) under setting [1] was 5.52 to 6.30.
As for `Cc1nc2cc([C@H]3CCO[C@@H](c4cnn(C5CC5)c4)C3)nc(-c3ccc(F)cc3F)c2nc1COCCF`, the pEC50 under setting [1] is 4.00 to 5.52.
Same read-out and setting: with `Cc1nc2cc(-c3nc([C@@H]4CCO[C@H](c5cnn(C6CC6)c5)C4)nc4nc(C)c(C)nc34)ccc2s1` the figure was 4.00 to 5.52; with `Cc1nc2nc(N3CCO[C@@H](c4cc(C5CC5)on4)C3)nc(-c3ccc(Cl)cc3F)c2nc1C`, 6.30 to 7.30.
For `Cc1cnc2c(-c3ccc(C(F)(F)F)cc3F)nc(N3C[C@@H](C)O[C@@H](c4cnn(C5CC5)c4)C3)nc2n1`, under setting [1], the pEC50 was greater than 7.30.
Consider `Cc1nc2cc([C@H]3CCO[C@@H](c4cnn(C5CC5)c4)C3)nc(-c3ccc(F)cc3F)c2nc1COCC(F)(F)F`, for which the pEC50 under setting [1] is 6.30 to 7.30.
On to `Cc1cnc2c(-c3ccc(F)cc3F)nc([C@H]3C[C@@H](C)O[C@@H](c4cnn(C5CC5)c4)C3)cc2n1` (relative stereo), for which the negative logarithm of the EC50 (pEC50) under setting [2] was 6.30 to 7.30.
For `Cc1nc2nc(N3CCO[C@H](c4cnn5c4CCC5)C3)nc(-c3ccc(F)cc3F)c2nc1C` [Example I-1529, (2R)-4-[4-(2,4-difluorophenyl)-6,7-dimethyl-pteridin-2-yl]-2-(5,6-dihydro-4H-pyrrolo[1,2-b]pyrazol-3-yl)morpholine], the pEC50 under setting [1] was 6.30 to 7.30.
On the same count and under the same terms, for `[2H]c1c([2H])c(-c2nc(N3C[C@@H](c4cnn(C5CC5)c4)O[C@@H](C)C3)nc3nc(C)c(C)nc23)c(F)c([2H])c1F` the value was greater than 7.30.
With `Cc1nc2nc([C@@H]3CCO[C@H](c4cnn(C5CC5)c4)C3)nc(-c3ccc(C(C)(C)C)cc3F)c2nc1C`, under setting [1], the pEC50 is 4.00 to 5.52.
Take `Cc1nc2nc(C3CCO[C@@H](c4cnn(C5CC5)c4)C3)nc(-c3ccc(OC(F)(F)F)cc3F)c2nc1C` (stereo partly drawn): the pEC50 under setting [1] was 6.30 to 7.30.
As to `Cc1nc2nc(C3(O)CCOC(c4cnn(C5CC5)c4)C3)nc(-c3ccc(Cl)cc3F)c2nc1C` (stereo not drawn), the pEC50 under setting [1] was 6.30 to 7.30.
On the same count and under the same terms, with `Cc1nc2nc(N3C[C@@H](c4cnn(C5CC5)c4)O[C@@H](C)C3)nc(C3CCC3)c2nc1C` the figure was 6.30 to 7.30.
As to `Cc1nc2nc(C3CCOC(c4cnn(C5CC5(F)F)c4)C3)nc(-c3ccc(C(F)(F)F)cc3F)c2nc1C` (stereo not drawn), the pEC50 under setting [1] was greater than 7.30.
Same read-out and setting: for `Cc1nc2nc(N3C[C@@H](c4cnn(C5CC5)c4)O[C@@H](C)C3)nc(C3CCCCC3)c2nc1C` the value was greater than 7.30; for `Cc1nc2nc([C@H]3CCO[C@@H](c4cnn(C5CC5)c4)C3)nc(-c3cccc4c3OCO4)c2nc1C`, 5.52 to 6.30.
Turning to `Cc1nc2nc(C3CCOC(c4cnn(C(C)C)c4)C3)nc(-c3ccc(F)cc3F)c2nc1C` (stereo not drawn), the pEC50 under setting [1] is greater than 7.30.
As for `Cc1nc2nc([C@@H]3CCO[C@H](c4cnn(C5CC5)c4)C3)nc(-c3ccc(C(C)(C)C#N)cc3F)c2nc1C`, the pEC50 under setting [1] is 4.00 to 5.52.
Consider `CCOc1nc2c(-c3ccc(F)cc3F)nc(C3CCOC(c4cnn(C5CC5)c4)C3)nc2nc1C` (stereo not drawn), for which the pEC50 under setting [1] was greater than 7.30.
On to `COc1ccc(Cn2cc([C@H]3C[C@@H](c4nc(-c5ccc(F)cc5F)c5nc(C)c(C)nc5n4)CCO3)cn2)cc1`, for which the pEC50 under setting [1] is 6.30 to 7.30.
In the case of `Cc1cnc2c(-c3ccc(F)cc3F)nc([C@H]3CCO[C@@H](c4cnn(C5CC5)c4)C3)cc2n1` (relative stereo), the negative logarithm of the EC50 (pEC50) under setting [2] was 6.30 to 7.30.
As for `Cc1nc2nc([C@@H]3CCO[C@H](c4cnn(C5CC5)c4)C3)nc(-c3ccc4c(c3)OCO4)c2nc1C`, under setting [1], the pEC50 was 6.30 to 7.30.
On the same count and under the same terms, with `Cc1nc2nc([C@@H]3CO[C@H](c4cnn(C5CC5)c4)C3)nc(-c3ccc(Cl)cc3)c2nc1C` the figure was 6.30 to 7.30; with `Cc1nc2nc([C@@H]3CO[C@H](c4cnn(C5CC5)c4)C3)nc(-c3ccc(C(F)(F)F)cc3)c2nc1C`, 5.52 to 6.30.
For `Cc1nc2nc([C@@H]3CCO[C@H](c4cnn(C5CC5)c4)C3)nc(-c3cc(F)c(C(F)(F)F)cc3F)c2nc1C`, the pEC50 under setting [1] was greater than 7.30.
`Cc1nc2nc([C@H]3CO[C@H](c4cnn(C5CC5)c4)C3)nc(-c3ccc(C(F)(F)F)cc3)c2nc1C`: under setting [1], the pEC50 was 5.52 to 6.30.
With `Cc1nc2nc(N3CCS(=O)(=O)[C@H](c4cnn(C5CC5)c4)C3)nc(-c3ccc(Cl)cc3F)c2nc1C`, under setting [1], the pEC50 is 5.52 to 6.30.
On the same count and under the same terms, with `Cc1nc2nc([C@H]3CCO[C@@H](c4cnn(C5CC5)c4)C3)nc(-c3ccc4c(c3)CC4)c2nc1C` the figure was 6.30 to 7.30; with `Cc1nc2nc([C@H]3CCO[C@@H](c4cnn(Cc5ccccc5)c4)C3)nc(-c3ccc(F)cc3F)c2nc1C`, greater than 7.30.
